# Test results as given in paper PMC9221018, “Sulfonamide-Derived Dithiocarbamate Gold(I) Complexes Induce the Apoptosis of Colon Cancer Cells by the Activation of Caspase 3 and Redox Imbalance” (Biomedicines, 2022).
# Assay: n-octanol-water distribution coefficient, shake-flask method
# Assay type: physicochemical
# Details: n-octanol/buffered saline pH 7.4, shake-flask
# Experimental: The n-octanol−water coefficients of the complexes were determined using a shake-flask method, as reported previously. Briefly, 100 mL buffered-saline (0.15 M NaCl, 10 mM phosphate [PO4^3−] buffer, pH 7.4) and 100 mL n-octanol were shaken for 72 h. The addition of 1 mg of the complexes followed by the centrifugation and separation of both phases gave two solutions, which were analysed by UV absorbance spectroscopy to determine their concentration in each phase. The corresponding value of log P was defined as log{[compound(organic)]/[compound(aqueous)]}.
substance,measurement,value
[Au(S2CNHSO2-p-Me-C6H4)(IBnPropargyl)] [Complex 10],Log P7.4,0.36
